Results as given in ChEMBL document CHEMBL1121916, “Structure-activity relationships in dihydropteroate synthase inhibition by sulfanilamides. Comparison with the antibacterial activity” (J Med Chem, 1981).

Experiment: PKa value was measured
Assay type: physicochemical

pKa: 6.37
Structure (SMILES): Nc1ccc(S(=O)(=O)Nc2ncccn2)cc1 [SULFADIAZINE]
